Apparent affinities of Ab-14 variants for a coronavirus HR2 peptide

Reference: Li et al. 2023, doi:10.1038/s41467-023-39022-2. File: FLAb, binding data.

The target is the same throughout: PDVDLGDISGINAS, from the HR2 region of SARS-CoV-2 spike.

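Designed CDR sequences, proposed from the first random library and measured here. Group labels follow the data file (En: ensemble of fine-tuned language models; HC: hill climbing; Gen: genetic algorithm; Gibbs: Gibbs sampling; a sequence that several methods proposed may carry one label only). The scFvs were displayed on barcoded MATa yeast, the peptide on MATalpha yeast. Binding brings cells together so that they mate, and sequencing counts the barcode pairs among the diploids. Read counts were normalised to the haploid input and turned into Kd by a linear fit to BCL2-family pairs of known affinity, for each replicate. The assay was run in six technical replicates.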

The variants keep the light chain, the linker and the frameworks of Ab-14 (scFv order VH, three GGGGS repeats, VL).
VH: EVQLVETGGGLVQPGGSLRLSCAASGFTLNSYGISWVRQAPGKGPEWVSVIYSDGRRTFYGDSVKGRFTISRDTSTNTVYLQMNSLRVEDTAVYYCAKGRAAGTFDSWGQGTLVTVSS
VL: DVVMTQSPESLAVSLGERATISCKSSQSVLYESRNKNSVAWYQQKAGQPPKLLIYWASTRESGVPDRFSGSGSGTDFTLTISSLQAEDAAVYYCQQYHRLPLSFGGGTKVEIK

Each variant is given by its three heavy chain CDRs, as the data file delimits them; those of the parent are GFTLNSYGIS, VIYSDGRRTFYGDSVK, GRAAGTFDS. Variants here have more than six changes. The Kd shown is the geometric mean over detected replicates; a lower Kd is a better binder. "no signal" marks a missing value. The strain was present, yet no cells mated with the target were sequenced in any replicate, which points to weak or no binding. Three control strains display no target. For all heavy chain designs, 1% of the pairings with them gave a signal, with a median of 120 nM and one signal in twenty below 7.0 nM, so weak values seen in few replicates may be background. Also given: how often the same scFv was detected with the empty control strains.

* GFNIEEYGIS, VIYADGRRTAYAEPVK, GEDGGTIDT [En_Gibbs] = 100 nM (2 of 6 replicates; controls 0 of 18)
* GFDLNEYGIS, VIYADGQRTAYADKVK, GNVAGTFDT [En_Gen] = 3.6 nM (5 of 6 replicates; controls 0 of 18)
* GFDLNEYGIS, VIYADGMRTTYTDSVK, GNEAGTFDS [En_HC] = 1.4 nM (6 of 6 replicates; controls 0 of 18)
* GFDLDEYGIS, VIYADGMRTAYVDSVK, GNVAGTFDL [En_Gen] = 650 pM (6 of 6 replicates; controls 0 of 18)
* GFDLNEYGIS, VIYADGMRTQYADSVK, GNVAGTFDV [En_Gen] = 500 pM (6 of 6 replicates; controls 0 of 18)
* GNDLNEYGIS, VIYADGIRTNYSQNVK, GTNGDTFTQ [En_Gibbs] = no signal (0 of 6 replicates; controls 0 of 18)
* GFDLAEYGVS, VIYADGKRTHYADHVK, GVNLGFFDT [En_Gibbs] = 420 nM (1 of 6 replicates; controls 1 of 18)
* GFDLNEYGIS, VIYADGMRTVYSDSVK, GENAGTFDI [En_Gen] = 690 pM (6 of 6 replicates; controls 2 of 18)
* GFDLNEYGIS, VIYADGMRTFYSDSVK, GTAGGTFDM [En_HC] = 2.1 nM (6 of 6 replicates; controls 0 of 18)
* GFNLDEYGIS, VIYADGVRTAYADSVK, GENAGTFDV [En_Gen] = 3.9 nM (6 of 6 replicates; controls 0 of 18)
* GFGLDEFGIS, VIYADGQRTAYLNSFK, GENSNAYDT [En_Gibbs] = no signal (0 of 6 replicates; controls 0 of 18)
* GFDLNEYGIS, VIYADGRRTAYSDSVK, GGNAGFFDA [En_HC] = 2.5 µM (1 of 6 replicates; controls 2 of 18)
* GFDLDEYGIS, VIYADGMRTAYADSVK, GENAGTFDT [En_Gen] = 11 nM (3 of 6 replicates; controls 0 of 18)
* GFNLNEYGIS, VIYADGRRTFYADSVK, GQTAGTFDM [En_HC] = 340 pM (6 of 6 replicates; controls 1 of 18)
* GFDLNEYGIS, VIYADGVRTFYTDSVK, GQLAGTFDV [En_HC] = 440 pM (6 of 6 replicates; controls 0 of 18)
* GFLIDEYGIS, VIYADGQRTAYADDVK, GYVGGIGGI [En_Gibbs] = no signal (0 of 6 replicates; controls 0 of 18)
* GFDINEYGIS, VIYADGRRTFYTDSVK, GQNAGTFDS [En_HC] = 1.3 nM (6 of 6 replicates; controls 1 of 18)
* GEVLDEYGIS, VIYADGQRVQYSDNVK, GLLTGAFDM [En_Gibbs] = no signal (0 of 6 replicates; controls 0 of 18)
* GFDLNEYGIS, VIYADGKRTSYADDVK, GENAGTFDV [En_Gen] = 270 pM (6 of 6 replicates; controls 0 of 18)
* GFDLDEYGIS, VIYADGRRTAYSDSVK, GENAGTFDM [En_Gen] = 530 pM (6 of 6 replicates; controls 0 of 18)
* GFDLESYGIS, VIYADGRRTFYSDSVK, GNNAGTFDI [En_HC] = 4.6 nM (6 of 6 replicates; controls 1 of 18)
* GFDINEYGIS, VIYADGRRTFYADSVK, GQTAGTFDL [En_HC] = 450 pM (6 of 6 replicates; controls 0 of 18)
* GFDLNEYGIS, VIYADGMRTAYADNVK, GENAGTFDV [En_Gen] = 180 pM (6 of 6 replicates; controls 0 of 18)
* GFDLDEYGIS, VIYADGMRTYYADSVK, GNVAGTFDL [En_Gen] = 6.8 nM (4 of 6 replicates; controls 0 of 18)
* GFDLNEYGIS, VIYADGRRTAYIDSVK, GNEAGTFDS [En_HC] = 1.3 nM (6 of 6 replicates; controls 0 of 18)
* GFSLDEYGIS, VIYADGVRTQYDDSFK, GTGDFDIEL [En_Gibbs] = no signal (0 of 6 replicates; controls 0 of 18)
* GFDLNEYGIS, VIYADGQRTFYADSVK, GEIAGTFDQ [En_HC] = 160 pM (6 of 6 replicates; controls 0 of 18)
* GFDLNEYGIS, VIYADGSRTAYADSVK, GNVAGTFDV [En_Gen] = 92 pM (5 of 6 replicates; controls 0 of 18)
* GNTLDEYGIS, VIYADGVRMAYINKFK, GMYTGTFDQ [En_Gibbs] = no signal (0 of 6 replicates; controls 0 of 18)
* GFDLNEYGIS, VIYADGIRTAYIDSVK, GNVAGTFDV [En_Gen] = 200 pM (6 of 6 replicates; controls 1 of 18)
* GFDLNEYGIS, VIYADGKRTAYADDVK, GNQAGTFDT [En_Gen] = 450 pM (6 of 6 replicates; controls 0 of 18)
* GFDLDEYGIS, VIYADGMRTYYADSVK, GNNAGTFDV [En_Gen] = 18 nM (2 of 6 replicates; controls 0 of 18)
* GFDLNEYGIS, VIYADGQRTVYADSVK, GQNAGTFDV [En_Gen] = 340 pM (6 of 6 replicates; controls 1 of 18)
* GFSINEYGIS, VIYADGNRSAYIDAVK, GNWGSSFLE [En_Gibbs] = no signal (0 of 6 replicates; controls 1 of 18)
* GFDLNEYGIS, VIYADGSRTAYADDVK, GETAGTFDV [En_Gen] = 610 pM (6 of 6 replicates; controls 0 of 18)
* GFDLNEYGIS, VIYADGQRTFYSDSVK, GNQAGTFDS [En_HC] = 310 pM (6 of 6 replicates; controls 0 of 18)
* GFSLDEMGIS, VIYADGSRMFYQDNVK, GNNSVTFNE [En_Gibbs] = no signal (0 of 6 replicates; controls 1 of 18)
* GFDLNEYGIS, VIYADGRRTAYVDSVK, GENAGTFDL [En_Gen] = 450 pM (6 of 6 replicates; controls 0 of 18)
* GFDLQEYGIS, VIYADGVRMAYTESVK, GNSGGRDML [En_Gibbs] = 810 nM (1 of 6 replicates; controls 1 of 18)
* GDGLQEYGIS, VIYADGFRTSYANSVK, GTGAGIFMV [En_Gibbs] = no signal (0 of 6 replicates; controls 0 of 18)
* GRNLDEYGIS, VIYADGERTSYRDNVK, GQTSGHLDM [En_Gibbs] = no signal (0 of 6 replicates; controls 0 of 18)
* GFNLDEYGIS, VIYADGRRTFYQDSVK, GEGAGTFDM [En_HC] = 2.9 nM (6 of 6 replicates; controls 0 of 18)
* GFDLDEYGIS, VIYADGRRTFYADSVK, GTNAGTFDV [En_HC] = 250 pM (6 of 6 replicates; controls 0 of 18)

Top 5 of the variants detected in all replicates, tightest first:

- GFDLNEYGIS, VIYADGQRTFYADSVK, GEIAGTFDQ [En_HC]: 160 pM (6 of 6 replicates; controls 0 of 18)
- GFDLNEYGIS, VIYADGMRTAYADNVK, GENAGTFDV [En_Gen]: 180 pM (6 of 6 replicates; controls 0 of 18)
- GFDLNEYGIS, VIYADGIRTAYIDSVK, GNVAGTFDV [En_Gen]: 200 pM (6 of 6 replicates; controls 1 of 18)
- GFDLDEYGIS, VIYADGRRTFYADSVK, GTNAGTFDV [En_HC]: 250 pM (6 of 6 replicates; controls 0 of 18)
- GFDLNEYGIS, VIYADGKRTSYADDVK, GENAGTFDV [En_Gen]: 270 pM (6 of 6 replicates; controls 0 of 18)

The authors averaged sequences with at least three values out of six and counted those with two or fewer as poor binders. Values of this round are not directly comparable with the first-round values of the same sequences.